Reference: patent US7605227B2, “Melanoma antigen peptide analogues” (MannKind Corporation, priority 2005, dated 2009)

What was measured:
HLA-A*0201 = HLA-A*0201 (Homo sapiens, UniProt P04439, D140Y/D185E/D98H/E176V/E277Q/G131W/G231S/I119V/I121R/I166T/I218V/L300P/L318F/N151K/N90K/P208A/P217A/Q86G/Q94H/R138H/R169H/T345S); experiment: Peptide binding using T2 cells (SSX-2 41-49 analogs); conditions: half maximal binding of wild-type peptide relative to analog; native = 1.0
[1] = test system: T cell lines against a natural (non-mutated) epitope (SSX-241-49); experiment: Cross-reactivity and functional avidity: IFN-gamma from T cell lines against natural SSX-2 41-49 epitope; assay type: cell-based, HHD transgenic mice; conditions: IFN-gamma from T cell line raised against native SSX-2 41-49; native = 1, lower = more active;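 further: peptide analogs tested ex vivo with competent APCs, IFN-gamma in supernatant measured by ELISA, readouts include minimal triggering concentration, peak effect and concentration at peak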

CC[C@H](C)[C@H](NC(=O)[C@H](CCCCN)NC(=O)[C@H](CCC(=O)O)NC(=O)[C@H](CO)NC(=O)[C@@H](NC(=O)[C@@H](N)Cc1ccccc1)C(C)C)C(=O)N[C@@H](Cc1ccccc1)C(=O)N[C@@H](Cc1ccc(F)cc1)C(=O)N[C@H](C(=O)O)C(C)C [SSX2 41-49 (K41F, A42V, Y48(Phe-4F)), FVSEKIF(Phe-4F)V]
Relative affinity (1/RA) (HLA-A*0201): 1.4 | Cross-reactivity and fct avidity (native to analogs)* [1]: 10
